Test results as given in the kinase profiling compilation of Christmann-Franck et al. (2016).

Amino acid sequences for entries named in this document (tags omitted). A change or cut given only in a name is not applied to a line headed by its entry.
UniProt O75676: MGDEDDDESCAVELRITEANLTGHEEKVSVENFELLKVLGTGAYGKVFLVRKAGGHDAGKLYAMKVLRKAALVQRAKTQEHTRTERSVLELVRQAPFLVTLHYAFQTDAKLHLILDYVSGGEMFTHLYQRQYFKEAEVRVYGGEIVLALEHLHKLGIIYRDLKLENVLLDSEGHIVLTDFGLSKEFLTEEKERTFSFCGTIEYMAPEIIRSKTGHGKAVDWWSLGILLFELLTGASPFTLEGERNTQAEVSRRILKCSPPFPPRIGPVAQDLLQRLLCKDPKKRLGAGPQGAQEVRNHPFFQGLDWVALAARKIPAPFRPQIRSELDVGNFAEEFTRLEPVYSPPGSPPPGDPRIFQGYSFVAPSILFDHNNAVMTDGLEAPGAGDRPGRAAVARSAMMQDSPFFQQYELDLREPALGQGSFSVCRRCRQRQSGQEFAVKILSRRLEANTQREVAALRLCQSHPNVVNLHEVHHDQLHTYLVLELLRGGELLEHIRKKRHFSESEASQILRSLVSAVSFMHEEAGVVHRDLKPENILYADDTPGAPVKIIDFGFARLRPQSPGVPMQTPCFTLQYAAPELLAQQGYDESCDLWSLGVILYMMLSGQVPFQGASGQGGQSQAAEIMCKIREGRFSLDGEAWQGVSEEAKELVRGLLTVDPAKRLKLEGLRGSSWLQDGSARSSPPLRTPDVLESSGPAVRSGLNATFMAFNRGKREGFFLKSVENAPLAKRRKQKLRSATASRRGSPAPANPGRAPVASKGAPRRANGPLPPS
UniProt P49760, whole entry, looked up: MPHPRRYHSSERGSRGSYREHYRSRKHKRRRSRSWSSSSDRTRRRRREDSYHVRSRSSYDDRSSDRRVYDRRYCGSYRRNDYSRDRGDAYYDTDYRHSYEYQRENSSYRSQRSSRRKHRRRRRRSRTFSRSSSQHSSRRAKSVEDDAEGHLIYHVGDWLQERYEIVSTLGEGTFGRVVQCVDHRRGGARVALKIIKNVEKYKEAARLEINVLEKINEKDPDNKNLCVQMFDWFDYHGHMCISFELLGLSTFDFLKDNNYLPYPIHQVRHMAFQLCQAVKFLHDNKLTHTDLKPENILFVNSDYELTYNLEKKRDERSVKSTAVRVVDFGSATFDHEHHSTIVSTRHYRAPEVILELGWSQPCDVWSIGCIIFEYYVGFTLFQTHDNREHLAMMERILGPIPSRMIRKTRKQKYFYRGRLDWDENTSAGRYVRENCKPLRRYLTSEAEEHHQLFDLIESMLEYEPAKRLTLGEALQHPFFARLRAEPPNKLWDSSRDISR
UniProt Q96KB5: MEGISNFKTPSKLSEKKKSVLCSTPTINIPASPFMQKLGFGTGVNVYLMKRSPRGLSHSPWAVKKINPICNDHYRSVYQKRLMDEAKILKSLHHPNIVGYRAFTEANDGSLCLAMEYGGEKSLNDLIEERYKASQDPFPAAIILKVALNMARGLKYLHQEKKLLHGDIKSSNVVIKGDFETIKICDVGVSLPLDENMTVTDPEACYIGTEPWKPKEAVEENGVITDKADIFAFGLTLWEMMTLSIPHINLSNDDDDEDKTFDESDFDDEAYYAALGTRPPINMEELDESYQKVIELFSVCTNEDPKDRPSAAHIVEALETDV
UniProt P49674: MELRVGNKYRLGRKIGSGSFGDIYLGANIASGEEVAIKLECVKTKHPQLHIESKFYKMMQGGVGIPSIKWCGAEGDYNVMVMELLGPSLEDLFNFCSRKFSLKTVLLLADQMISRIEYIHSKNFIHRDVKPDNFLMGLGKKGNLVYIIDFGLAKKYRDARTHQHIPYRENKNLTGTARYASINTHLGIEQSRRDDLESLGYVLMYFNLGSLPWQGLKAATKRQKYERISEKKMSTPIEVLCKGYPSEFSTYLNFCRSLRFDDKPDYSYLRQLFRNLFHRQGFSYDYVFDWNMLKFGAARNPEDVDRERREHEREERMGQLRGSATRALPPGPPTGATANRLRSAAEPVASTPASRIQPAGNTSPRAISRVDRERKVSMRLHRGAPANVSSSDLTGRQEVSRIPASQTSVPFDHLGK
UniProt Q14012: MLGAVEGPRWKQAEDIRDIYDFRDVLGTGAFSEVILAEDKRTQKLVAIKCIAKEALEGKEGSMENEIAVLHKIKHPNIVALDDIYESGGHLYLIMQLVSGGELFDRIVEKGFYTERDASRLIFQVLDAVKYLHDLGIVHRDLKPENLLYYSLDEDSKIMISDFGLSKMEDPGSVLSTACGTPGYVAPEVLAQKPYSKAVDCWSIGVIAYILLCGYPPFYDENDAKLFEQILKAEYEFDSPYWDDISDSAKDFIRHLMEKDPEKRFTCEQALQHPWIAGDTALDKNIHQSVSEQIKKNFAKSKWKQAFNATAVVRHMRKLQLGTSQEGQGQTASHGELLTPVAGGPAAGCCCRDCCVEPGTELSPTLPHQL
UniProt O14920: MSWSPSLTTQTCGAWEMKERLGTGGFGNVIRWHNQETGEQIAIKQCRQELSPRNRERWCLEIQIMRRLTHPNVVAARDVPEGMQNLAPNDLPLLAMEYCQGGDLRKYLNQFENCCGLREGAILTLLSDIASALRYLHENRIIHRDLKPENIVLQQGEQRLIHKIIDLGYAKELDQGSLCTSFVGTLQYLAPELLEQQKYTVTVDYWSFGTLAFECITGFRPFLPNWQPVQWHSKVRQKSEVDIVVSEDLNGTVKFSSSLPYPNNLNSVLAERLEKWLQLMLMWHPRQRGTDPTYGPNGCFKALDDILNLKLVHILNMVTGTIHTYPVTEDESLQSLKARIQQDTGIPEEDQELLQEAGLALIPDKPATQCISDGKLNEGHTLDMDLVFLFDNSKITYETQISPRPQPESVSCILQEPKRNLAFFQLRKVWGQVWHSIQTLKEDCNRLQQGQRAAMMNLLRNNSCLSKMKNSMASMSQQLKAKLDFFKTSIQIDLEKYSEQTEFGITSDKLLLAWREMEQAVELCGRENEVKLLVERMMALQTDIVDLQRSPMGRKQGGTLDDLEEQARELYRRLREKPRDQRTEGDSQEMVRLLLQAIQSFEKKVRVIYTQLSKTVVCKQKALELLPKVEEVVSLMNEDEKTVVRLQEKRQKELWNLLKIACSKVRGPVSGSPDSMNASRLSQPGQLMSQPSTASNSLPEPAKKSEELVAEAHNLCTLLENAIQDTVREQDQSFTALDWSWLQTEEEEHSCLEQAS
UniProt Q13882, whole entry, looked up: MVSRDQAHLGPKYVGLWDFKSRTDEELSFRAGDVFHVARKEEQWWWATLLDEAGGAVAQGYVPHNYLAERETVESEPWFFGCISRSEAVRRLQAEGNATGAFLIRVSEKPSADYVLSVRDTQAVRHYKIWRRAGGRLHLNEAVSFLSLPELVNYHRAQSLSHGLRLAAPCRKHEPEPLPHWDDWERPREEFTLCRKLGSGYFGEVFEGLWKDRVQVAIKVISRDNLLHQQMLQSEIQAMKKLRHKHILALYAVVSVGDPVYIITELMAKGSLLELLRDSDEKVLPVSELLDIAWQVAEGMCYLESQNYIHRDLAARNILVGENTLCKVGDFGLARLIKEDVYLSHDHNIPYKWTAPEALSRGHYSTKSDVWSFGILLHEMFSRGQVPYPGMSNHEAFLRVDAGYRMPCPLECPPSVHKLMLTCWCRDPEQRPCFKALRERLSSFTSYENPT
UniProt Q9P286: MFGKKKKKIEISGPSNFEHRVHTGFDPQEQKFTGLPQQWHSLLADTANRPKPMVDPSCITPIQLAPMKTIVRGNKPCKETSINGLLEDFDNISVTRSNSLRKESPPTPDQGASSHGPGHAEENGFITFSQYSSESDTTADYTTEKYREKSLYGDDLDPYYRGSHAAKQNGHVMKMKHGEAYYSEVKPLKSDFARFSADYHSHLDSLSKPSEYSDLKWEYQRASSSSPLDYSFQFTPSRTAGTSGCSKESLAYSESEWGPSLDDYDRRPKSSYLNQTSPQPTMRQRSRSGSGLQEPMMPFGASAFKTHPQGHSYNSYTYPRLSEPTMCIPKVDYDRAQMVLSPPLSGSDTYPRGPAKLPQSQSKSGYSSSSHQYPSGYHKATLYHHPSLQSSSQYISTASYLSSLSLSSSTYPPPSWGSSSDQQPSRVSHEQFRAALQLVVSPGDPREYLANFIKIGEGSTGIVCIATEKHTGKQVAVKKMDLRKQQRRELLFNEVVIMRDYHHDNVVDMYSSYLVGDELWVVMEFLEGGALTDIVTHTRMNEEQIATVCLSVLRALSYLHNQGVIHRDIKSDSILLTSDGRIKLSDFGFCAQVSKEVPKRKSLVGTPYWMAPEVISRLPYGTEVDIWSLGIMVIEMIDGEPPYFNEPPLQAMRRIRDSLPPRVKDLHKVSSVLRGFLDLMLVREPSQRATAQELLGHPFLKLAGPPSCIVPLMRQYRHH
UniProt Q9Y243: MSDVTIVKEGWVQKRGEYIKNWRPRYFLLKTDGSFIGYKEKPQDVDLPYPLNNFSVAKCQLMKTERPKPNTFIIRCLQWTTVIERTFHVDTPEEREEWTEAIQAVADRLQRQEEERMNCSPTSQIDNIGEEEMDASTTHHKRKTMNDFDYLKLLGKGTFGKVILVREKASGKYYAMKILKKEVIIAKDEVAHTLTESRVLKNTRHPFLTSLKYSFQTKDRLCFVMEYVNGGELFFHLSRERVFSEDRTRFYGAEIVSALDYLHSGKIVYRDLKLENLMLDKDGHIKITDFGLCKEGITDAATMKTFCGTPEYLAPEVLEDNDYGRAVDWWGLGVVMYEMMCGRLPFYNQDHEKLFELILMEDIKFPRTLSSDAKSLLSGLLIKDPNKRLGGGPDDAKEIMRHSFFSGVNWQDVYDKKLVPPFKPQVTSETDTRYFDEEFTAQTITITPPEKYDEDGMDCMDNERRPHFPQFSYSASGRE
UniProt P25098: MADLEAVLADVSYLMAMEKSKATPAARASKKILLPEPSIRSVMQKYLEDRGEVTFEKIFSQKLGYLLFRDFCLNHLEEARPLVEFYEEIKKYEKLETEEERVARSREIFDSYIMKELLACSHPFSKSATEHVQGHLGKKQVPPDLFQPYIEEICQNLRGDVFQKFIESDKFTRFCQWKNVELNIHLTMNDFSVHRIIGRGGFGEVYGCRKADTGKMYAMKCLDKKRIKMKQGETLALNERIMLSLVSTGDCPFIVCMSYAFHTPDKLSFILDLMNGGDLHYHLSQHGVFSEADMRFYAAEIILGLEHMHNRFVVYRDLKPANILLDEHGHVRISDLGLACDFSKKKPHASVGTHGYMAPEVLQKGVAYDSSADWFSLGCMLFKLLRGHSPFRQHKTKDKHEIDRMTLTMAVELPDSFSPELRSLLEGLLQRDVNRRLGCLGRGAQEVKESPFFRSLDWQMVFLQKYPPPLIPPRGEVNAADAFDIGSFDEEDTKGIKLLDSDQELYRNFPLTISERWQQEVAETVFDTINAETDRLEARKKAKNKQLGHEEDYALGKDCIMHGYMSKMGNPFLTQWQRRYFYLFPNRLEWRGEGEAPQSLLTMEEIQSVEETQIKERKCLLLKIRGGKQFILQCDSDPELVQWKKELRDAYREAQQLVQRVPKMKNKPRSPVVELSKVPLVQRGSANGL
UniProt O14965: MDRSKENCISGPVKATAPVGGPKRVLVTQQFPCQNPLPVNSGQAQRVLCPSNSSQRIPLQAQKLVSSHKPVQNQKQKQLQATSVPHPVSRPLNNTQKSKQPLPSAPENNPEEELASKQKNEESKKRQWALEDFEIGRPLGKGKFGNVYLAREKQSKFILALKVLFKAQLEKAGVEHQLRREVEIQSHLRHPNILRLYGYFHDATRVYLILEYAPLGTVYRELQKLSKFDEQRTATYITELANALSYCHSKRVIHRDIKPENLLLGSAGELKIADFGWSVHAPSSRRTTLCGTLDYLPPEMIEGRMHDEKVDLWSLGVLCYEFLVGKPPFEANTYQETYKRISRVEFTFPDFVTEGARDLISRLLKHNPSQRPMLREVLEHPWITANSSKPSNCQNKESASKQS
UniProt Q13177, whole entry, looked up: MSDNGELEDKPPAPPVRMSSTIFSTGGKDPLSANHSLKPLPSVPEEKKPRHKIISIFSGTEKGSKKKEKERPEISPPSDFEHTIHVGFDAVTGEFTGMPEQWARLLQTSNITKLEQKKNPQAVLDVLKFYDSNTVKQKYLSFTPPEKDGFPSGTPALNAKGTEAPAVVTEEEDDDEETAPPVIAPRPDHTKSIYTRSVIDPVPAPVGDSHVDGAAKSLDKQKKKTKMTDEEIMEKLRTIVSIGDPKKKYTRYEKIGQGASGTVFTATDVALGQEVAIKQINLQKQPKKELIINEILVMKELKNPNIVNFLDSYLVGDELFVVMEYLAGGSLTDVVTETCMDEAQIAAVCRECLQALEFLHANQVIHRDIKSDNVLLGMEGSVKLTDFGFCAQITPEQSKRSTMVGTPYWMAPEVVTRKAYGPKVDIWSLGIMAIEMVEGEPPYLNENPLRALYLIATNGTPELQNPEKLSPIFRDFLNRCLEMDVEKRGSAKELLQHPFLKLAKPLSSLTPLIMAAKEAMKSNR

What was measured:
Assay in all cases: radiometric filter-binding kinase assay, Kinase HotSpot
Details in all cases: compound 0.5 µM; ATP 10 µM
ADRBK2 (human) = ADRBK2 (human) (UniProt P35626)
PASK (human) = PASK (human) (UniProt Q96RG2)
EPHA3 (human) = EPHA3 (human) (UniProt P29320)
MAP4K5 (human) = MAP4K5 (human) (UniProt Q9Y4K4)
RPS6KA4 KD2 (human) = RPS6KA4 KD2 (human) (UniProt O75676)
ERBB4 (human) = ERBB4 (human) (UniProt Q15303)
CLK2 (human) = CLK2 (human) (UniProt P49760)
ITK (human) = ITK (human) (UniProt Q08881)
PRKD2 (human) = PRKD2 (human) (UniProt Q9BZL6)
MINK1 (human) = MINK1 (human) (UniProt Q8N4C8)
NEK3 (human) = NEK3 (human) (UniProt P51956)
MAPK14 (human) = MAPK14 (human) (UniProt Q16539)
PBK (human) = PBK (human) (UniProt Q96KB5)
TBK1 (human) = TBK1 (human) (UniProt Q9UHD2)
TAOK3 (human) = TAOK3 (human) (UniProt Q9H2K8)
TTK (human) = TTK (human) (UniProt P33981)
LCK (human) = LCK (human) (UniProt P06239)
PRKACA (human) = PRKACA (human) (UniProt P17612)
MAPKAPK5 (human) = MAPKAPK5 (human) (UniProt Q8IW41)
CAMK2G (human) = CAMK2G (human) (UniProt Q13555)
CSNK1E (human) = CSNK1E (human) (UniProt P49674)
FGFR3 (human) = FGFR3 (human) (UniProt P22607)
PRKD3 (human) = PRKD3 (human) (UniProt O94806)
RIPK2 (human) = RIPK2 (human) (UniProt O43353)
PKN1 (human) = PKN1 (human) (UniProt Q16512)
CLK4 (human) = CLK4 (human) (UniProt Q9HAZ1)
PRKCE (human) = PRKCE (human) (UniProt Q02156)
CSNK1A1 (human) = CSNK1A1 (human) (UniProt P48729)
MAP3K9 (human) = MAP3K9 (human) (UniProt P80192)
CAMK1 (human) = CAMK1 (human) (UniProt Q14012)
IKBKB (human) = IKBKB (human) (UniProt O14920)
PTK6 (human) = PTK6 (human) (UniProt Q13882)
PAK7 (human) = PAK7 (human) (UniProt Q9P286)
EPHA5 (human) = EPHA5 (human) (UniProt P54756)
AKT3 (human) = AKT3 (human) (UniProt Q9Y243)
ADRBK1 (human) = ADRBK1 (human) (UniProt P25098)
AURKA (human) = AURKA (human) (UniProt O14965)
PAK2 (human) = PAK2 (human) (UniProt Q13177)
DYRK4 (human) = DYRK4 (human) (UniProt Q9NR20)
ULK1 (human) = ULK1 (human) (UniProt O75385)
PHKG2 (human) = PHKG2 (human) (UniProt P15735)
HCK (human) = HCK (human) (UniProt P08631)

Q: With `CO[C@H]1[C@@H](OC)C[C@H](C)[C@@H](OC)C2=CC(=O)C=C(NC(=O)/C(C)=C\C=C/[C@H](OC)[C@@H](OC(N)=O)/C(C)=C\[C@@H]1C)C2=O` as the molecule, how does the residual activity (ADRBK2 (human)) read?
A: 101%

Q: And the residual activity (PASK (human))?
A: 95.1%

Q: What about the residual activity (EPHA3 (human)) of the same molecule?
A: 98%

Q: What about the residual activity (MAP4K5 (human)) of the same molecule?
A: 109%

Q: And the residual activity (RPS6KA4 KD2 (human))?
A: 96.7%

Q: And the residual activity (ERBB4 (human))?
A: 99.9%

Q: And the residual activity (CLK2 (human))?
A: 89.3%

Q: What about the residual activity (ITK (human)) of the same molecule?
A: 102%

Q: And the residual activity (PRKD2 (human))?
A: 93.7%

Q: What about the residual activity (MINK1 (human)) of the same molecule?
A: 90.8%

Q: What about the residual activity (NEK3 (human)) of the same molecule?
A: 111%

Q: What about the residual activity (MAPK14 (human)) of the same molecule?
A: 93.9%

Q: And the residual activity (PBK (human))?
A: 101%

Q: What about the residual activity (TBK1 (human)) of the same molecule?
A: 101%

Q: What about the residual activity (TAOK3 (human)) of the same molecule?
A: 102%

Q: What about the residual activity (TTK (human)) of the same molecule?
A: 118%

Q: And the residual activity (LCK (human))?
A: 91.8%

Q: And the residual activity (PRKACA (human))?
A: 94.2%

Q: What about the residual activity (MAPKAPK5 (human)) of the same molecule?
A: 95.9%

Q: And the residual activity (CAMK2G (human))?
A: 89.6%

Q: And the residual activity (CSNK1E (human))?
A: 85.9%

Q: What about the residual activity (FGFR3 (human)) of the same molecule?
A: 93.9%

Q: What about the residual activity (PRKD3 (human)) of the same molecule?
A: 100%

Q: And the residual activity (RIPK2 (human))?
A: 115%

Q: And the residual activity (PKN1 (human))?
A: 104%

Q: And the residual activity (CLK4 (human))?
A: 86.9%

Q: And the residual activity (PRKCE (human))?
A: 98.3%

Q: And the residual activity (CSNK1A1 (human))?
A: 107%

Q: What about the residual activity (MAP3K9 (human)) of the same molecule?
A: 105%

Q: What about the residual activity (CAMK1 (human)) of the same molecule?
A: 91.3%

Q: What about the residual activity (IKBKB (human)) of the same molecule?
A: 94.2%

Q: And the residual activity (PTK6 (human))?
A: 104%

Q: What about the residual activity (PAK7 (human)) of the same molecule?
A: 93.8%

Q: What about the residual activity (EPHA5 (human)) of the same molecule?
A: 112%

Q: What about the residual activity (AKT3 (human)) of the same molecule?
A: 94.1%

Q: And the residual activity (ADRBK1 (human))?
A: 95.7%

Q: What about the residual activity (AURKA (human)) of the same molecule?
A: 91%

Q: And the residual activity (PAK2 (human))?
A: 96.1%

Q: What about the residual activity (DYRK4 (human)) of the same molecule?
A: 94%

Q: What about the residual activity (ULK1 (human)) of the same molecule?
A: 92.7%

Q: What about the residual activity (PHKG2 (human)) of the same molecule?
A: 100%

Q: And the residual activity (HCK (human))?
A: 107%
